Source: ChEMBL document CHEMBL1134073, “Synthesis and antiviral activities of the major metabolites of the HIV protease inhibitor ABT-378 (Lopinavir)” (Bioorg Med Chem Lett, 2001)
pKi: −log10 of the molar value.

Target: Human immunodeficiency virus type 1 protease (Human immunodeficiency virus 1, UniProt Q72874)
Test: Inhibitory activity against HIV protease

`Cc1cccc(C)c1OCC(=O)N[C@@H](Cc1ccccc1)[C@@H](O)C[C@H](Cc1ccccc1)NC(=O)[C@H](C(C)C)N1CCCNC1=O` [LOPINAVIR] showed a pKi of 11.89.
